{"source": "DBAASP", "key": {"[1]": {"tested_on": "Escherichia coli K-12", "test": "≥ marks a high value that may be exact or a test limit, other limits are often not marked, values filed in µg/mL are converted to µM"}, "[2]": {"tested_on": "Staphylococcus aureus ATCC 12600", "test": "≥ marks a high value that may be exact or a test limit, other limits are often not marked, values filed in µg/mL are converted to µM"}}}
{"smiles": "CC(C)C[C@H](NC(=O)[C@H](CCCCN)NC(=O)[C@H](CCCCN)NC(=O)[C@H](Cc1ccccc1)NC(=O)[C@H](Cc1ccccc1)NC(=O)[C@@H](N)CCCCN)C(=O)N[C@@H](CCCCN)C(=O)N[C@@H](CCCCN)C(=O)N[C@@H](C)C(=O)N[C@H](C(=O)N[C@@H](CCCCN)C(=O)N[C@@H](CCCCN)C(=O)NCC(=O)N[C@@H](Cc1ccccc1)C(=O)N[C@@H](CCCCN)C(=O)N[C@@H](CCCCN)C(=O)N[C@@H](Cc1ccccc1)C(=O)N[C@@H](C)C(=O)N[C@@H](CCCCN)C(=O)N[C@H](C(=O)O)C(C)C)C(C)C", "note": "[KFFKKLKKAVKKGFKKFAKV]", "values": [{"measurement": "MIC", "setting": "[1]", "result": 8, "unit": "µM"}, {"measurement": "MIC", "setting": "[2]", "result": "≥ 128", "unit": "µM"}]}
{"smiles": "CC[C@H](C)[C@H](NC(=O)[C@H](C)NC(=O)[C@H](CCCCN)NC(=O)[C@H](CC(C)C)NC(=O)[C@H](C)NC(=O)[C@@H](NC(=O)[C@H](Cc1cnc[nH]1)NC(=O)[C@H](CC(C)C)NC(=O)[C@@H](NC(=O)[C@@H](NC(=O)[C@H](CCCCN)NC(=O)[C@@H](NC(=O)[C@H](C)NC(=O)[C@H](CO)NC(=O)[C@H](CCCCN)NC(=O)[C@H](Cc1ccccc1)NC(=O)[C@@H](NC(=O)[C@H](CCCCN)NC(=O)[C@H](CC(C)C)NC(=O)[C@H](Cc1ccccc1)NC(=O)[C@H](CO)NC(=O)[C@H](CCCCN)NC(=O)[C@H](Cc1c[nH]c2ccccc12)NC(=O)[C@@H](N)CCCCN)[C@@H](C)O)C(C)C)[C@@H](C)O)C(C)C)[C@@H](C)O)C(=O)N[C@@H](CO)C(=O)N[C@@H](CO)C(=O)O", "note": "[KWKSFLKTFKSAVKTVLHTALKAISS]", "values": [{"measurement": "MIC", "setting": "[1]", "result": 4, "unit": "µM"}, {"measurement": "MIC", "setting": "[2]", "result": 16, "unit": "µM"}]}
